ChEMBL document CHEMBL3217567, “Differential activation of soluble guanylate cyclase by a series of aryl disulfanyl dinitrate esters” (Medchemcomm, 2014)

Legend:
[1] = Activation of Sprague-Dawley rat soluble guanylate cyclase after 10 mins in presence of cysteine
[2] = Activation of Sprague-Dawley rat soluble guanylate cyclase after 10 mins

**Q.** With O=[N+]([O-])OCC(CS)O[N+](=O)[O-] (configuration not stated) as the compound, how does the EC50 [1] read?
**A.** The EC50 was 71 µM.

**Q.** And the EC50 [2]?
**A.** The EC50 was 43 µM.
